Reference: US8080659B2, “CXCR4 antagonists including diazine and triazine structures for the treatment of medical disorders” (Emory University, priority 2006, dated 2011)

Sequences of proteins named here, by UniProt entry; tags and fusion partners are left off.
UniProt P61073, whole entry: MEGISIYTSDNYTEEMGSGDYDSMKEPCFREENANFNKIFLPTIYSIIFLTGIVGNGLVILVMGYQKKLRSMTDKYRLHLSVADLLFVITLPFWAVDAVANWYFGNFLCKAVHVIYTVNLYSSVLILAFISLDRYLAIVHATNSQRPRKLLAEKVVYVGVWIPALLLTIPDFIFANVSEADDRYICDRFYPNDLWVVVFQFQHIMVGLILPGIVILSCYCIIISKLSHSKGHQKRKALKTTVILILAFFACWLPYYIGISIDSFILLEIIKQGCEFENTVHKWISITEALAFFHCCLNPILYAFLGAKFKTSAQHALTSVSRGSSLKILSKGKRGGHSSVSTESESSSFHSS

Assays:
MDA-MB-231 cells = assay: cell viability of MDA-MB-231 cells; format: cell-based, human; details: 100 μM (the highest concentration tested)
Source text: Using biotin-labeled TN14003 along with streptavidin-conjugated rhodamine allowed a determination of the binding efficiency of these chemicals to the SDF-1 binding site of CXCR4 on tumor cells and compared it to AMD3100-SDF-1 interactions (FIG. 7). […] On the other hand, some candidate compounds were as potent as TN14003 at very low concentrations. Therefore, one of these compounds, WZZL811S, was selected to study its therapeutic potential based on potency and low toxicity to cells (FIG. 9).

[1] = tested on: human umbilical vein endothelial cells (HUVECs); assay: endothelial capillary tube formation assay; format: cell-based; details: 100 nM; SDF-1 100 ng/ml; 18 hours
Experimental: The anti-angiogenic effect of test compounds was measured by analyzing endothelial cell growth and tube formation. The angiogenic effect of SDF-1 (100 ng/ml) on capillary formation by human umbilical vein endothelial cells (HUVECs) was examined in vitro using Matrigel-coated 24-well plates precoated with Matrigel and incubated for 18 hours. The angiogenic effect of SDF-1 was inhibited by either 100 nM TN14003 (peptide-based CXCR4 antagonist) or WZZL811S treatment (FIG. 14a, graph FIG. 14b).

CXCR4 = CXCR4 (Homo sapiens, UniProt P61073); assay: SDF-1-stimulated Akt phosphorylation in MDA-MB-231 cells (western blot); details: 100 ng/ml SDF-1, 30 min, dose-dependent

## c1ccc(NCc2ccc(CNc3ccccn3)cc2)nc1
MDA-MB-231 cells
  cell viability: did not decrease cell viability
[1]
  angiogenic effect of SDF-1 on capillary tube formation: inhibited
CXCR4
  block of SDF-1-stimulated phosphorylation of Akt: blocked
